System: epoxide hydrolase from Achromobacter sp. MTCC 5605
Test: Effect of metal salts on styrene oxide hydrolysis by whole cells
Conditions: 5 mM metal salt, standard assay conditions

Row | Substance | Effect of metal salt on enzyme activity / enantioselectivity
1 | Al2(SO4)3 | increased
2 | BaCl2 | no enantioselectivity
3 | CaCl2 | partially inhibited
4 | CuCl2 | increased
5 | FeCl3 | increased
6 | MgSO4 | almost no effect
7 | MnSO4 | no enantioselectivity
